The source of these data is paper PMC3961306, “Comparison of the Cancer Gene Targeting and Biochemical Selectivities of All Targeted Kinase Inhibitors Approved for Clinical Use” (PLoS ONE, 2014).

The chains behind the UniProt entries cited, without tags or fusion partners. Residues count along the entry.
UniProt P07947, whole entry T348I: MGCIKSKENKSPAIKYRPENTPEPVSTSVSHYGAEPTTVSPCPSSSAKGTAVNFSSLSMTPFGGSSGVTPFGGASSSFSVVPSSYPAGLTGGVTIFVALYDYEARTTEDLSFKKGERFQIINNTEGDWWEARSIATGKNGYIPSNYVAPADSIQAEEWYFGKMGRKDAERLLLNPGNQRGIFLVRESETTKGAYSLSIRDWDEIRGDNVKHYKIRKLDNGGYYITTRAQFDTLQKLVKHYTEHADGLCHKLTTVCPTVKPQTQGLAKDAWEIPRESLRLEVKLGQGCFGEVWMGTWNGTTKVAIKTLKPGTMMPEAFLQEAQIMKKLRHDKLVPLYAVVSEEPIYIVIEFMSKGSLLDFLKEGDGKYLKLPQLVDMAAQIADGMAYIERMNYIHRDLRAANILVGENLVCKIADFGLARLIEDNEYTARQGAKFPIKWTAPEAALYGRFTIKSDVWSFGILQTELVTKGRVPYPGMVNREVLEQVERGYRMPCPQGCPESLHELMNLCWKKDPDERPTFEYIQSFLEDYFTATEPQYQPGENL
UniProt Q05655, whole entry, stated change not applied: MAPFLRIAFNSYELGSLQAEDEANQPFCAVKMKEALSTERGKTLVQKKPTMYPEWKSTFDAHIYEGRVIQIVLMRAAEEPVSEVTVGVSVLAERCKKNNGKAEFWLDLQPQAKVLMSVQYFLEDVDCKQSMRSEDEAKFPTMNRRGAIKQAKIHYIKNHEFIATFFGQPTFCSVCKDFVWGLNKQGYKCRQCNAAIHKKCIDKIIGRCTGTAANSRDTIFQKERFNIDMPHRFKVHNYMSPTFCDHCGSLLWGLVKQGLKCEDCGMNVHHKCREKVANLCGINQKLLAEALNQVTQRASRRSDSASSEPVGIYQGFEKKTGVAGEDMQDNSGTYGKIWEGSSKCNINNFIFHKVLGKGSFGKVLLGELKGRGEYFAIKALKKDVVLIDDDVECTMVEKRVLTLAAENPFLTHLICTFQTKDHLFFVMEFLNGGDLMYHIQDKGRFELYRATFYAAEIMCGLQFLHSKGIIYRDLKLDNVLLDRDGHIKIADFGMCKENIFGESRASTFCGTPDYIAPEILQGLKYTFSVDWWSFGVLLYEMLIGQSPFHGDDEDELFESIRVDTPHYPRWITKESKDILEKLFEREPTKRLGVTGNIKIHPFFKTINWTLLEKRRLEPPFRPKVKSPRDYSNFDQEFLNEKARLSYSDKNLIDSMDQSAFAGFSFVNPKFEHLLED
UniProt Q9NZJ5, 30-1116, stated change not applied: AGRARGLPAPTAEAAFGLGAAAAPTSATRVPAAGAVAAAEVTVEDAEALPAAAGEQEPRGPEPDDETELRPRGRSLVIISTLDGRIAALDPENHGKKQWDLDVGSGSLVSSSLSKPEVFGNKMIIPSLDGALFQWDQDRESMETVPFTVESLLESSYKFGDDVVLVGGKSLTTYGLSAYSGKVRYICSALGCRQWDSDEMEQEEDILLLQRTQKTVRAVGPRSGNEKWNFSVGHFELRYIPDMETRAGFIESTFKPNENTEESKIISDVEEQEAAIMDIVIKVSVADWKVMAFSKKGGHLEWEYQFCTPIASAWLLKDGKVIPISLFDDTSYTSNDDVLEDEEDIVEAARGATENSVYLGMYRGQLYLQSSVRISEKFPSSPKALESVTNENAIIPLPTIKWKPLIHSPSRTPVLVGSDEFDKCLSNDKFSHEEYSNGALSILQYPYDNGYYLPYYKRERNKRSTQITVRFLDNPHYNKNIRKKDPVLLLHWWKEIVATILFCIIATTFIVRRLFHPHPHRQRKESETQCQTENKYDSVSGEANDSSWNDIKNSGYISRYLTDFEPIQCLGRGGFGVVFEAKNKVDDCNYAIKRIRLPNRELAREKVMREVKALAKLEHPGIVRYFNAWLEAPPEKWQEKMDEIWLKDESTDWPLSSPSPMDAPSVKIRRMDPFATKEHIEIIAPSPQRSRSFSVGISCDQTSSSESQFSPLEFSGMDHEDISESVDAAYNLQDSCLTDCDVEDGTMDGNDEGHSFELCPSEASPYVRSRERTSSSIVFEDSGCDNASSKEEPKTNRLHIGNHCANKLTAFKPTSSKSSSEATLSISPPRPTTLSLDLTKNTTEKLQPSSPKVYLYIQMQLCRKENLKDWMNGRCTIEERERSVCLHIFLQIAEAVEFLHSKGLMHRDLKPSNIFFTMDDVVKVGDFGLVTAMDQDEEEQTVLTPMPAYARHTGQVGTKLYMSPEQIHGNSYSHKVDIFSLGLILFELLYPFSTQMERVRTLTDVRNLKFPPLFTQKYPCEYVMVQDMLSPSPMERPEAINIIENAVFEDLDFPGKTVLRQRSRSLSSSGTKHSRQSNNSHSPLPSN
UniProt Q9HCP0, whole entry, stated change not applied: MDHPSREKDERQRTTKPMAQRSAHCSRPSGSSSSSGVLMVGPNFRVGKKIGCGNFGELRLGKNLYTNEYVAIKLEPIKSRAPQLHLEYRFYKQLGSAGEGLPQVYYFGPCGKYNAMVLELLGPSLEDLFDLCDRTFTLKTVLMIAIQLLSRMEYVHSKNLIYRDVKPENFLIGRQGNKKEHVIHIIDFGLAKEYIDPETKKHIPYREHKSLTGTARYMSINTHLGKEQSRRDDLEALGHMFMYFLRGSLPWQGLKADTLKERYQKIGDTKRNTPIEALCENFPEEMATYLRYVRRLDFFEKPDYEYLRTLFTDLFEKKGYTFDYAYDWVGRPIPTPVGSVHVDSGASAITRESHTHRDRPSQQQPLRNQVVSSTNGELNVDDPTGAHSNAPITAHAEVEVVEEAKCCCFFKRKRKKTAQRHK
UniProt Q13464, whole entry, stated change not applied: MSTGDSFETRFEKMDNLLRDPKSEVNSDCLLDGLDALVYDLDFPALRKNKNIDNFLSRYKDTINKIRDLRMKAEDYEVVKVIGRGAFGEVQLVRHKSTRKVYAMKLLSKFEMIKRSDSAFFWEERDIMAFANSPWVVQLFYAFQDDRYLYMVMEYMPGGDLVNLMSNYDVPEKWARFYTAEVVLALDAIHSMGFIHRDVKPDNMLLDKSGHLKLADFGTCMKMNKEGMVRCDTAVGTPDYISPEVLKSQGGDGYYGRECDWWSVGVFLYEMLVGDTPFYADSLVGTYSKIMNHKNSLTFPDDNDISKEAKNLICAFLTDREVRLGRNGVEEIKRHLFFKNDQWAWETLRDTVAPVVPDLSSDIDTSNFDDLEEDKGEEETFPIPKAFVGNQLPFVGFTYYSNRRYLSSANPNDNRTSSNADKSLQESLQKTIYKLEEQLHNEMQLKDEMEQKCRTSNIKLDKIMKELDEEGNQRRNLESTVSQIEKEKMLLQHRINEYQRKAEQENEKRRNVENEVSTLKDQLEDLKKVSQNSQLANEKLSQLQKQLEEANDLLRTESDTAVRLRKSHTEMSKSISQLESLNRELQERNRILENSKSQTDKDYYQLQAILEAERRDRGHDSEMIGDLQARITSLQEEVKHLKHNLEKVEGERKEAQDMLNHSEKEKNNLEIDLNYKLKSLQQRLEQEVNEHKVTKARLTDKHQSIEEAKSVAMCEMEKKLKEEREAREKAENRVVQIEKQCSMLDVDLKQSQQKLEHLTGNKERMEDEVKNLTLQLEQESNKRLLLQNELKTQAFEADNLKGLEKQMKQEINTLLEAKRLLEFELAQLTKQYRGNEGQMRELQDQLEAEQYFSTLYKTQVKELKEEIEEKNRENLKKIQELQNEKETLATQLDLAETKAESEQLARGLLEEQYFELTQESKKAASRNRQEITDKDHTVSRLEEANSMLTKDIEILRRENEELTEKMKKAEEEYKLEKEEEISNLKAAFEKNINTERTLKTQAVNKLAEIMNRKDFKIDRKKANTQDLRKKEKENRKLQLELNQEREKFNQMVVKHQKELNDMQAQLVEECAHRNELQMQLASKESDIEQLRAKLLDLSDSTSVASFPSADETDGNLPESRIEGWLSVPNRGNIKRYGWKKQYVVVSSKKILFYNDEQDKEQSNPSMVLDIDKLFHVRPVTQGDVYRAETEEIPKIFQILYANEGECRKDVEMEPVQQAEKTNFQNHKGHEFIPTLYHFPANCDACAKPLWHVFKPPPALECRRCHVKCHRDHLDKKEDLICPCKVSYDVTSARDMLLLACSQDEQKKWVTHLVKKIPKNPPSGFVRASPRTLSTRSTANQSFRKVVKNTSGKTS
UniProt Q9HBY8, whole entry, stated change not applied: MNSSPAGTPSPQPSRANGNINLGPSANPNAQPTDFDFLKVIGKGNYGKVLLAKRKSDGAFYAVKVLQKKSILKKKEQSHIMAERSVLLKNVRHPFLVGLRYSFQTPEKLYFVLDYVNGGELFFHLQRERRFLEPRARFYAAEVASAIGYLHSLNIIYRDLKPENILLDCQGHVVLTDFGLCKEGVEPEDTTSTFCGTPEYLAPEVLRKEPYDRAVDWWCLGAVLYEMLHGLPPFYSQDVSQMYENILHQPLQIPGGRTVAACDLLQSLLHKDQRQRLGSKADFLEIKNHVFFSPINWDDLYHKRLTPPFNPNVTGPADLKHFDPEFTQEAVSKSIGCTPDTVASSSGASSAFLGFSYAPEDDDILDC
UniProt P53355, whole entry, stated change not applied: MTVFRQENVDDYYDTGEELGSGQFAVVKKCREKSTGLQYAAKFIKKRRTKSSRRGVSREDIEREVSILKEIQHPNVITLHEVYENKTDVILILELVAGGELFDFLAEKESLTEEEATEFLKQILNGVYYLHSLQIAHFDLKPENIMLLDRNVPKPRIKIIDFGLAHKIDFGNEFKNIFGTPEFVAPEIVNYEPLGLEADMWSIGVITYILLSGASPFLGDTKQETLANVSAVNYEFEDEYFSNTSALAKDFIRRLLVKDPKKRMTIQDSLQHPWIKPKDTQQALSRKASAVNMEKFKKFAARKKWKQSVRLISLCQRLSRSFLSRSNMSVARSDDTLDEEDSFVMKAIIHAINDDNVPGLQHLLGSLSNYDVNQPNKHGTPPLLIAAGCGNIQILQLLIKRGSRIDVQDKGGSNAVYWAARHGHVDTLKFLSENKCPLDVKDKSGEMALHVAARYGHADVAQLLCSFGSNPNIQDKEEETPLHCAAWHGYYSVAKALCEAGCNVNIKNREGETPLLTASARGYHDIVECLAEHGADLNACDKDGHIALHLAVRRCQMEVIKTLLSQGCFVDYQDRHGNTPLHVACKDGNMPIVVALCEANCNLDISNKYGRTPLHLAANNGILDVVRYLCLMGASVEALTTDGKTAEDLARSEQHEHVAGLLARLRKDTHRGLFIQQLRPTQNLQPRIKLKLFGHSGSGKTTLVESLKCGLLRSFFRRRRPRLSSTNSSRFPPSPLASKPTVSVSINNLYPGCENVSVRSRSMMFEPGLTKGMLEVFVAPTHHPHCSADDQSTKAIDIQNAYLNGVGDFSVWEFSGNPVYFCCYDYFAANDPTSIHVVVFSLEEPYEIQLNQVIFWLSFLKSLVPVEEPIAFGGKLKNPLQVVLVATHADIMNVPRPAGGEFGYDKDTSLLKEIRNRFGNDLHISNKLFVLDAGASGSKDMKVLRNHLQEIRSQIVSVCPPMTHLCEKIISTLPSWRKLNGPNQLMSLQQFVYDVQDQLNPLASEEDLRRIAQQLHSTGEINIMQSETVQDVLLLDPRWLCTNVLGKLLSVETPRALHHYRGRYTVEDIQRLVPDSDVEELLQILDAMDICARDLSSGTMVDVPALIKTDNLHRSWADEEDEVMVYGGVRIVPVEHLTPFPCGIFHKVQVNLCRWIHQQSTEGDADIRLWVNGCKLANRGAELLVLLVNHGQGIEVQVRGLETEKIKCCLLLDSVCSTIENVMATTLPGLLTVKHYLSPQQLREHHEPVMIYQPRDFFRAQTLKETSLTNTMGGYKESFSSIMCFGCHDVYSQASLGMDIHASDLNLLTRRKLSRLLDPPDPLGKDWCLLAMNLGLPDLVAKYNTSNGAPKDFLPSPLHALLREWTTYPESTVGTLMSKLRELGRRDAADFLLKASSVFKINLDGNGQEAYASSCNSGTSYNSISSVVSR
UniProt P53667, whole entry, stated change not applied: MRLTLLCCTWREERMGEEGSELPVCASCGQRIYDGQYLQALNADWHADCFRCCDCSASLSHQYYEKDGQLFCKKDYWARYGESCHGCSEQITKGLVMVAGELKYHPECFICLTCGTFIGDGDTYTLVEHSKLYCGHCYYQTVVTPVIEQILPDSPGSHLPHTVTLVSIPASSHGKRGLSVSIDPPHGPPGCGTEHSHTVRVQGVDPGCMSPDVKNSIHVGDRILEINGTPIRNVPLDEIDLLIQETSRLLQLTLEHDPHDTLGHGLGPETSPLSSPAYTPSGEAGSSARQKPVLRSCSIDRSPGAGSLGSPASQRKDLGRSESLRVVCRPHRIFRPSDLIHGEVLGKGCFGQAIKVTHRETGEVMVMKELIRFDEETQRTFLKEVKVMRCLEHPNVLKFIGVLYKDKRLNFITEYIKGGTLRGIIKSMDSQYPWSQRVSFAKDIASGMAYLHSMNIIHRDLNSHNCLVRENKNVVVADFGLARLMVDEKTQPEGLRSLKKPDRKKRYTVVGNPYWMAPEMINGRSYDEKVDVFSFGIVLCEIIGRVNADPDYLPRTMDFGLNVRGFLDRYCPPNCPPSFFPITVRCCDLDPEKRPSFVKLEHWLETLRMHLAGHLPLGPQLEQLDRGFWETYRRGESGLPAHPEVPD

Common to all, as to test: Kinase profiling in a biochemical assay panel (mobility shift assays and ELISA), %-inhibition at 1 μM; selectivity entropy
Background: ELISA stands for enzyme-linked immunosorbent assay.

The target of experiment [1] is panel of more than 300 wild-type and mutant kinases (313 kinase panel) (Homo sapiens, UniProt P07947, T348I).
The target in experiment [2] is panel of more than 300 wild-type and mutant kinases (313 kinase panel) (Homo sapiens, UniProt Q9UPE1).
The target in experiment [3] is panel of more than 300 wild-type and mutant kinases (313 kinase panel) (Homo sapiens, UniProt P52333). The settings on record: kinase JAK3; compound at 1 μM.
The target in experiment [4] is panel of more than 300 wild-type and mutant kinases (313 kinase panel) (Homo sapiens, UniProt P04626).
Experiment [5] deals with panel of more than 300 wild-type and mutant kinases (313 kinase panel) (Homo sapiens, UniProt Q12851). Conditions: 1 µM.
The target of experiment [6] is panel of more than 300 wild-type and mutant kinases (313 kinase panel) (Homo sapiens, UniProt Q05655). The settings on record: 1 µM.
The target in experiment [7] is panel of more than 300 wild-type and mutant kinases (313 kinase panel) (Homo sapiens, UniProt Q9NZJ5).
The target in experiment [8] is panel of more than 300 wild-type and mutant kinases (313 kinase panel) (Homo sapiens, UniProt P07949, S891A). The settings on record: 1 µM.
The target of experiment [9] is panel of more than 300 wild-type and mutant kinases (313 kinase panel) (Homo sapiens, UniProt P31751). Conditions: 1 µM.
Experiment [10] concerns the target panel of more than 300 wild-type and mutant kinases (313 kinase panel) (Homo sapiens, UniProt P49137). The settings on record: 1 µM.
The target in experiment [11] is panel of more than 300 wild-type and mutant kinases (313 kinase panel) (Homo sapiens, UniProt P27448). Conditions: 1 µM.
In experiment [12] the target is panel of more than 300 wild-type and mutant kinases (313 kinase panel) (Homo sapiens, UniProt P06213). Conditions: 1 µM.
For experiment [13], the target named is panel of more than 300 wild-type and mutant kinases (313 kinase panel) (Homo sapiens, UniProt Q9HCP0). Conditions: 1 µM.
Experiment [14] addresses panel of more than 300 wild-type and mutant kinases (313 kinase panel) (Homo sapiens, UniProt P16234, V561D). The settings on record: 1 µM.
The target in experiment [15] is panel of more than 300 wild-type and mutant kinases (313 kinase panel) (Homo sapiens, UniProt Q13464). The settings on record: 1 µM.
Experiment [16] deals with panel of more than 300 wild-type and mutant kinases (313 kinase panel) (Homo sapiens, UniProt P06241). The settings on record: 1 µM.
For experiment [17], the target named is panel of more than 300 wild-type and mutant kinases (313 kinase panel) (Homo sapiens, UniProt Q9HBY8). Conditions: 1 µM.
For experiment [18], the target named is panel of more than 300 wild-type and mutant kinases (313 kinase panel) (Homo sapiens, UniProt P29317). Conditions: 1 µM.
Experiment [19] concerns the target panel of more than 300 wild-type and mutant kinases (313 kinase panel) (Homo sapiens, UniProt P53355). Conditions: 1 µM.
Experiment [20] addresses panel of more than 300 wild-type and mutant kinases (313 kinase panel) (Homo sapiens, UniProt O96017). Conditions: 1 µM.
The target in experiment [21] is panel of more than 300 wild-type and mutant kinases (313 kinase panel) (Homo sapiens, UniProt P53667). Conditions: 1 µM.
Experiment [22] deals with panel of more than 300 wild-type and mutant kinases (313 kinase panel) (Homo sapiens, UniProt Q9Y3S1).
Experiment [23] has as its target panel of more than 300 wild-type and mutant kinases (313 kinase panel) (Homo sapiens, UniProt P33981). The settings on record: 1 µM.

The structures appear in SMILES notation.

For `CNC(=O)c1ccccc1Sc1ccc2c(/C=C/c3ccccn3)n[nH]c2c1` [axitinib], in experiment [1] (kinase YES(T348I), compound at 1 μM), the “%-inhibition of YES(T348I)” value came out at 91%. Moreover, in experiment [2] (kinase MSSK1, 1 μM), the “%-inhibition of MSSK1” value is reported as 6%. Besides, the “%-inhibition of JAK3” value in experiment [3] was found to be 75%. Besides, the “%-inhibition of HER2” value in experiment [4] (kinase HER2, compound at 1 μM) is reported as -5%.
As to `COc1cc2ncnc(Nc3ccc(F)c(Cl)c3)c2cc1OCCCN1CCOCC1` [gefitinib], the “%-inhibition of MAP4K2” value in [5] came to 6.66%. For the same compound, the “%-inhibition of PKCδ” value in experiment [6] stood at 1.51%. Moreover, the “%-inhibition of PEK” value in experiment [7] (kinase PEK, 1 μM) is on record as 0.579%. In experiment [8], the “%-inhibition of RET(S891A)” value is given as 66%. In experiment [9], the “%-inhibition, AKT2” value was 4.29%. The “%-inhibition of MAPKAPK2” value in [10] was determined as 4%. The “%-inhibition of JAK3” value in experiment [3] is given as 4%. Moreover, the “%-inhibition of MARK3” value in experiment [11] came out at 11%. For the same compound, the “%-inhibition of INSR” value in [12] was determined as 2.63%. Also, the “%-inhibition, CK1γ1” value in experiment [13] worked out at 2.33%. The “%-inhibition of PDGFRα(V561D)” value in experiment [14] came out at 65%. Further, the “%-inhibition of ROCK1” value in experiment [15] is on record as 1.19%. Also, in experiment [16], the “%-inhibition of FYN” value worked out at 24%. In experiment [17], the “%-inhibition of SGK2” value came out at 6.52%. Moreover, the “%-inhibition of EPHA2” value in experiment [18] came out at 19%. The “%-inhibition of DAPK1” value in experiment [19] amounted to 7%. Besides, the “%-inhibition, CHK2” value in experiment [20] is recorded as 27%. Further, the “%-inhibition of LIMK1” value in experiment [21] is listed as -3.69%. In experiment [22] (kinase WNK2, compound at 1 μM), the “%-inhibition of WNK2” value is recorded as -6.43%. Also, the “%-inhibition of TTK” value in experiment [23] came to 19%.
For `C[C@@H]1CCN(C(=O)CC#N)C[C@@H]1N(C)c1ncnc2[nH]ccc12` [tofacitinib], in [5], the “%-inhibition of MAP4K2” value amounted to 1.58%. In addition, the “%-inhibition of PKCδ” value in [6] was 12%. Moreover, the “%-inhibition of PEK” value in experiment [7] (1 µM) worked out at 2.48%. The “%-inhibition of RET(S891A)” value in experiment [8] is 48%. Moreover, the “%-inhibition, AKT2” value in experiment [9] is -3.28%. Besides, in experiment [1] (1 µM), the “%-inhibition of YES(T348I)” value amounted to 11%. The “%-inhibition of MAPKAPK2” value in experiment [10] is given as -17%. The “%-inhibition of MSSK1” value in experiment [2] (1 µM) is recorded as -6%. In experiment [11], the “%-inhibition of MARK3” value was found to be 56%. Besides, in experiment [12], the “%-inhibition of INSR” value is given as -1%. For the same compound, the “%-inhibition, CK1γ1” value in [13] was -3.25%. In [14], the “%-inhibition of PDGFRα(V561D)” value was 10%. Also, the “%-inhibition of ROCK1” value in experiment [15] is 23%. Besides, the “%-inhibition of FYN” value in experiment [16] came out at 33%. For the same compound, the “%-inhibition of SGK2” value in experiment [17] was -0.178%. Further, in [18], the “%-inhibition of EPHA2” value is reported as -1.38%. The “%-inhibition of DAPK1” value in [19] is -3%. Further, the “%-inhibition of HER2” value in experiment [4] (1 µM) is reported as -0.179%. Moreover, the “%-inhibition, CHK2” value in experiment [20] turned out to be 7%. In addition, the “%-inhibition of LIMK1” value in experiment [21] is reported as 6%. Also, the “%-inhibition of WNK2” value in [22] (1 µM) is -5%. The “%-inhibition of TTK” value in experiment [23] came to 2.19%.
